Reference: patent US20200360477A1

Chains of the proteins cited; added tags and fusions are not shown. Lines headed by an entry give the natural chain unless they say otherwise; changes in a name come on top.
UniProt Q9UBF8: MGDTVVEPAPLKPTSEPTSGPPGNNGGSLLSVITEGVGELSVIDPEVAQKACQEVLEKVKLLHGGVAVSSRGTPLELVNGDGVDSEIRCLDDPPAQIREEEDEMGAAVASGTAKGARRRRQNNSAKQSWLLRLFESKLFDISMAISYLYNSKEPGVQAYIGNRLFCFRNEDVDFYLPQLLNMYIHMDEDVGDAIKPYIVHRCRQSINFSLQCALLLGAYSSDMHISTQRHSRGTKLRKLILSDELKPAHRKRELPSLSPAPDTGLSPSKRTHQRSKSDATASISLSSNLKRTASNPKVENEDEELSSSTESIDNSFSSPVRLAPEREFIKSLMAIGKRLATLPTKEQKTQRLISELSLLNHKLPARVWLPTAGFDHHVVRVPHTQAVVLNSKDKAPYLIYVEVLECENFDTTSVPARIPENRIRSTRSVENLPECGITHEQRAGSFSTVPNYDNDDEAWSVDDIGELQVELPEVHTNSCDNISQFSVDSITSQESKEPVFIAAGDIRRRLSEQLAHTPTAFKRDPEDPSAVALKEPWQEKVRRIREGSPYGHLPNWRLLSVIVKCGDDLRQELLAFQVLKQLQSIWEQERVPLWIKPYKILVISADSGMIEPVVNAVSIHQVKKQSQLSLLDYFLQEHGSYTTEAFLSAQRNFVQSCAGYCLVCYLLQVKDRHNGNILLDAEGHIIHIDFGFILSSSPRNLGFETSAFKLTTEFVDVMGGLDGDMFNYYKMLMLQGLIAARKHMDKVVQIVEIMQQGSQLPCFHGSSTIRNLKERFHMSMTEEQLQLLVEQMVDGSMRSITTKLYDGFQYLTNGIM

Target: T1, PIK4CB (Homo sapiens, UniProt Q9UBF8)
T1 construct: purchased Eurofins DiscoverX Corporation (KINOMEscan); host or cells: E. coli BL21-derived host (T7 phage) or HEK-293
Assay: KINOMEscan competition binding assay

**Q.** “imatinib [Compound A, reference compound]” was tested. Which Kd did it give?
**A.** The Kd was over 10 µM.
